According to ChEMBL document CHEMBL1131422, “N-(2-Benzoylphenyl)-L-tyrosine PPARgamma agonists. 1. Discovery of a novel series of potent antihyperglycemic and antihyperlipidemic agents” (J Med Chem, 1998):

Target: T1, Peroxisome proliferator-activated receptor alpha (Homo sapiens) (UniProt Q07869)
T1 sequence (whole entry): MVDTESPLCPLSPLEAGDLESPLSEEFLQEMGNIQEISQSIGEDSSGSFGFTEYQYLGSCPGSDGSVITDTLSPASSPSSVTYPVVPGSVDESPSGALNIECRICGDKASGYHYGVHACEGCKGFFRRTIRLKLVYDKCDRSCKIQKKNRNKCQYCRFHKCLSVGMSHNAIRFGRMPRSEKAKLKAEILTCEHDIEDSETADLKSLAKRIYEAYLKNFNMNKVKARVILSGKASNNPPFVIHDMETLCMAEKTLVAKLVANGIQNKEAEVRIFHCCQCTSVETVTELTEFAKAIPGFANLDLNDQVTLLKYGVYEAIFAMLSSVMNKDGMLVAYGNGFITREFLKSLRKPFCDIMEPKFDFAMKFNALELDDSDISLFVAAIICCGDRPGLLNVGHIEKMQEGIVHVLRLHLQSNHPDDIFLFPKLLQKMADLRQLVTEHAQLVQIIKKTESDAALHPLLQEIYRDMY
Test: The compound was tested in vitro for inhibiting the 50% binding of Peroxisome proliferator activated receptor alpha

Cc1oc(-c2ccccc2)nc1CCOc1ccc(C[C@H](Nc2ccccc2C(=O)c2ccccc2)C(=O)O)cc1 [FARGLITAZAR]
Log Ki: 6.31 µM
